Measured values from article PMC6736568, “Discovery of Novel Anti-cryptosporidial Activities From Natural Products by in vitro High-Throughput Phenotypic Screening” (Frontiers in Microbiology, 2019).

Test system: HCT-8 host cells (Hs18S)
Settings: primary screening at 10 uM; for Cytotoxicity (%): from Hs18S ΔCT; for Hs18S ΔCT: treated vs control

ISOTECTORIGENIN, 7-METHYL ETHER
Cytotoxicity (%): 3.0% | Hs18S ΔCT: 0.04

MONENSIN SODIUM (monensin A is shown)
Cytotoxicity (%): 15.7% | Hs18S ΔCT: 0.25
